In patent US10549237B2, “Regenerable draw solute for osmotically driven processes” (NANYANG TECHNOLOGICAL UNIVERSITY, priority 2015, dated 2020):

Assay: Osmotic pressure of the crystallization supernatant estimated from the FO water flux test
Type: physicochemical

Disodium phosphate
osmotic pressure of supernatant: ≤ 35 bar | osmotic pressure of supernatant (7.5 wt % supernatant (cooling to 20° C.), corresponds to 3.4 wt % NaCl): about 26 bar

Where two headings read alike, the source gives them in different places.
